The values that follow come from patent US8829028B2, “5-HT4 receptor antagonists for the treatment of heart failure” (Serodus AS, priority 2002, dated 2014).

By UniProt entry, the sequences of proteins in these tests, tags left out. Where a name states a change or a piece, a line headed by the entry shows the natural chain unless it says otherwise.
UniProt Q62758: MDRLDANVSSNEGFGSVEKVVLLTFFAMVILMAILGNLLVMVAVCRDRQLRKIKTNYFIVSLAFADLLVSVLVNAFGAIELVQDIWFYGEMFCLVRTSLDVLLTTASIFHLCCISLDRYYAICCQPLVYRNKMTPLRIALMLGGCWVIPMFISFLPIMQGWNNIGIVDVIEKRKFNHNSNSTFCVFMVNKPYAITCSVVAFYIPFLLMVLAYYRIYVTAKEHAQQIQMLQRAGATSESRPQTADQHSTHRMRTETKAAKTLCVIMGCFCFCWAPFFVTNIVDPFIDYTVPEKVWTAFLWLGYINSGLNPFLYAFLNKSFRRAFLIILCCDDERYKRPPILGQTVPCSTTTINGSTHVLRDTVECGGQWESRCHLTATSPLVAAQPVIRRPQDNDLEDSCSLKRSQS
UniProt Q13639: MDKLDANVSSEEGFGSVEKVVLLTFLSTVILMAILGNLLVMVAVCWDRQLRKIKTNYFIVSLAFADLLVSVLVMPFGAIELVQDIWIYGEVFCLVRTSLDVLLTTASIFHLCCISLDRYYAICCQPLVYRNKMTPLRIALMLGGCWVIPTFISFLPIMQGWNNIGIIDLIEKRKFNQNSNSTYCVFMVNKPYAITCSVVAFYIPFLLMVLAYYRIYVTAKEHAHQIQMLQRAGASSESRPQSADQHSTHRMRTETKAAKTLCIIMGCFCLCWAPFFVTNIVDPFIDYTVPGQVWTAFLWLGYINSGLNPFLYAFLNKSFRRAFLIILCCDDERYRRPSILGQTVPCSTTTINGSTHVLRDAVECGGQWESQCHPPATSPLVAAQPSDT

Where “and” joins values, the source holds several entries; their conditions need not be identical. Equal values may be shown once. Read-outs that look alike come from different tables or passages of the source.

Test [1] concerns 5-HT2A receptor (Rattus norvegicus). The note with it: papillary muscle. As for the experimental part:
(§1) The muscles were field stimulated with alternating polarity at 1 Hz with impulses of 5 msec duration and current about 20% above individual threshold (10-15 mA, determined in each experiment). The isometrically contracting muscles were stretched to the maximum of their length-tension curve. The force was recorded and analysed as previously described (Skomedal et al., 1997, J. Pharmacol. Exp. Ther. 280: 721-729). The muscles were allowed to equilibrate for 90 minutes. […] Averaged contraction-relaxation cycles (CRC) were calculated for different experimental periods, and these cycles were used to determine descriptive parameters like maximal development of force (dF/dt)max, time to peak force (TPF) and time to relaxation to 20% level (TR2O). Relaxation time (RT) was calculated as TR2O-TPF. (dF/dt)max was used as an index of contractility. Inotropic responses induced by agonists were expressed by increase in (dF/dt)max. […] Lusitropic responses were expressed as reduction in RT. […]
The responses for each concentration of agonist were generally calculated as percent of maximal response. […] The horizontal positioning of the concentration-response curves was expressed as pEC50-values (=−log EC50). Data are expressed as mean±standard error of the mean (SEM) and the number of animals expressed as n. The significance levels of differences were calculated according to Students t-test. […]

Test [2] deals with T1, 5-HT4 receptor (Rattus norvegicus, UniProt Q62758).
T1 construct: The papillary muscles were mounted in organ baths; from tissue; host or cells: rat posterior left ventricular papillary muscle (post-MI or aortic-banding heart failure)
Nature of the test: Antagonism of the serotonin inotropic response by 5-HT4 antagonists in post-MI rat papillary muscle (reversal, curve shift, Schild Kb). The test is classed as cell-based. As for the experimental part:
The muscles were field stimulated with alternating polarity at 1 Hz with impulses of 5 msec duration and current about 20% above individual threshold (10-15 mA, determined in each experiment). The isometrically contracting muscles were stretched to the maximum of their length-tension curve. The force was recorded and analysed as previously described (Skomedal et al., 1997, J. Pharmacol. Exp. Ther. 280: 721-729). The muscles were allowed to equilibrate for 90 minutes. […] Averaged contraction-relaxation cycles (CRC) were calculated for different experimental periods, and these cycles were used to determine descriptive parameters like maximal development of force (dF/dt)max, time to peak force (TPF) and time to relaxation to 20% level (TR2O). Relaxation time (RT) was calculated as TR2O-TPF. (dF/dt)max was used as an index of contractility. Inotropic responses induced by agonists were expressed by increase in (dF/dt)max. RT was used as index of relaxation. Lusitropic responses were expressed as reduction in RT. Mechanical response at the end of the equilibrium period was used as the control response.
Agonist was added cumulatively or as a single bolus directly to the organ baths and was completely mixed in the solution within 2-3 seconds. […] The different agonists were added directly to the organ baths in increasing concentrations until supramaximal concentrations of agonist were obtained with respect to maximal inotropic response.
The responses for each concentration of agonist were generally calculated as percent of maximal response. The concentration-response curves constructed from papillary muscle experiment were constructed according to Ariens and Simonis (1964, supra), by estimating centiles (EC10 to EC100) for each single experiment and calculating the corresponding means. This calculation provides mean curves that express the response as fractional response or percent of maximum and display horizontal positioning and the correct mean slope of the curves. The horizontal positioning of the concentration-response curves was expressed as pEC50-values (=−log EC50). Data are expressed as mean±standard error of the mean (SEM) and the number of animals expressed as n. The significance levels of differences were calculated according to Students t-test. P<0.05 is considered statistically significant. The inhibition constants Kb were calculated from the Schild equation, based on the relative shifts of the concentration-response curves for receptor stimulation.

Test [3] relates to papillary muscles from Chronic heart failure rats. Briefly: Inotropic and lusitropic response of isolated papillary muscles from post-MI Chronic heart failure rats (organ bath, 1 Hz). The note with it: 10 μmol/l serotonin; prazosin, atropine and timolol present. The test is classed as cell-based, rat. The procedure:
Male, Wistar rats (Mollegaard Breeding and Research Centre, Skensved, Denmark), weighing about 320 g were intubated and ventilated with 68% N2O, 29% O2 and 2-3% Isofluran (Abbot Laboratories, USA). An extensive myocardial infarction (MI) was induced by a proximal ligation of the left coronary artery. Six weeks later the rats were anaesthetized and ventilated on the respirator with 2.2% Isofluran. Left ventricular pressures were measured (Sjaastad et al., 2000, J. Appl. Physiol, 89: 1445-1454), and Chronic heart failure rats were included in the study if left ventricular end diastolic pressure (LVEDP) was >15 mm Hg. […]
as §1, with “The isometrically contracting muscles were stretched to the maximum of their length-tension curve.” left out, “721-729).” for “721-729). The muscles were allowed to equilibrate for 90 minutes.”, “TR2O-TPF.” for “TR2O-TPF. (dF/dt)max was used as an index of contractility. Inotropic responses induced by agonists were expressed by increase in (dF/dt)max.”

Test [4] concerns the target 5-HT4 receptor (Homo sapiens, UniProt Q13639). The note with it: cited from earlier work.

Regarding `Cl.NCCc1c[nH]c2ccc(O)cc12` [serotonin, 5-hydroxytryptamine hydrochloride], the “maximal inotropic response at the top of the concentration-response curve” value in test [1] amounted to 17.5±1.9%. The EC50 on 5-HT4 receptor [2] (pEC50 of serotonin) was 0.0479 µM; on 5-HT4 receptor [2] (pEC50 of serotonin, absence of GR113808, 0.1 μmol/l ketanserin present, SEM, n=6), 0.024 µM; at 5-HT4 receptor [2] (pEC50 value for serotonin), 0.0562 µM and 0.407 µM; at 5-HT4 receptor [2] (presence of 5 nM RS39604, 6 week post MI rats, read-out: pEC50 value for serotonin (converted)) it was 0.55 µM. Moreover, the “time from addition of serotonin to 50% relative inotropic response” value in test [3] came to 22 ± 2.0 s.

Turning to `Cn1cc(C(=O)OCC2CCN(CCNS(C)(=O)=O)CC2)c2ccccc21` [GR113808, {1-[2-(methyl-sulphonylamino)ethyl]-4-piperidinyl}methyl 1-methyl-1H-indole-3-carboxylate], the “selectivity for the 5-HT4 receptor over all other known receptors” value at 5-HT4 receptor [4] is listed as “at least 1000 fold”.
